Earlier results as cited in patent US20190038611A1, “Novel CYP34A-Specific Inhibitors and Methods of Using Same” (THE REGENTS OF THE UNIVERSITY OF CALIFORNIA, priority 2015, published 2019).

By UniProt entry, the sequences of proteins in these tests, tags left out. Chains listed by the source or under a name are the forms on record and can include a tag or linker. Residues count along the entry.
UniProt P08684, 23-503 with tags or gaps limits assumed: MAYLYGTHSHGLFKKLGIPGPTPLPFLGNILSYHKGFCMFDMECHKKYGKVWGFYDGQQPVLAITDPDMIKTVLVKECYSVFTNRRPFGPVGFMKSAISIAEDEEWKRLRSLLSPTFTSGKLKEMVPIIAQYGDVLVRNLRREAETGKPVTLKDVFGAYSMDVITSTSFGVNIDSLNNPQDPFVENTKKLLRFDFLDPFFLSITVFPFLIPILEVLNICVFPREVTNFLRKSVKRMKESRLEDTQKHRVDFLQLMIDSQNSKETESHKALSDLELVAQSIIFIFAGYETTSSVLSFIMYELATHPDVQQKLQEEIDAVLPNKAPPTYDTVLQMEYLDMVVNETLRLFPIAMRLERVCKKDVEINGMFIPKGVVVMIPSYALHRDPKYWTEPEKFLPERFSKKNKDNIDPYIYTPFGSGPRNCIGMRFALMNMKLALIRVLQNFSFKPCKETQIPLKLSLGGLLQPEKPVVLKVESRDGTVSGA

Molecular target: CYP3A4 (Homo sapiens, UniProt P08684)
Settings: determined previously (Sevrioukova and Poulos 2010, 2013); cited from earlier work

SMILES: CC(C)c1nc(CN(C)C(=O)N[C@@H](C(=O)N[C@@H](CC[C@H](Cc2ccccc2)NC(=O)OCc2cccnc2)Cc2ccccc2)C(C)C)cs1
- kfast (rate constant for the fast phase of the binding reaction): 7.0 s⁻¹
